From article doi:10.1101/2025.08.29.673196v2

Chains of the proteins cited; added tags and fusions are not shown. Residues count along the entry.
UniProt P18627, 23-450 limits assumed: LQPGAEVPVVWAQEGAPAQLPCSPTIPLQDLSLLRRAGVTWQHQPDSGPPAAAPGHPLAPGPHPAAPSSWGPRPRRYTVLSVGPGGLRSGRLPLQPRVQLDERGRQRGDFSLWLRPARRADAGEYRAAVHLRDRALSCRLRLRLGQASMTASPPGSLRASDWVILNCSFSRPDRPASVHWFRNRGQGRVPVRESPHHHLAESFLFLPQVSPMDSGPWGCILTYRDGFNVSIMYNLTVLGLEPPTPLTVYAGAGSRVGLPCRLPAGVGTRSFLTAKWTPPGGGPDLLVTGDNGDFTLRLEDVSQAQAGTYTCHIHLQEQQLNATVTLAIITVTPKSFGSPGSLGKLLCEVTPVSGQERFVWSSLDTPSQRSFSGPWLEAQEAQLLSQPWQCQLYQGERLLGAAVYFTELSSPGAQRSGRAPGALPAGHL

molecular target: LAG-3 (biotinylated LAG-3 of HTRF LAG-3/MHCII binding assay) (Homo sapiens, UniProt P18627); experiment: HTRF LAG-3/MHCII binding inhibition; details: displacement of MHCII; room temperature, 3 h

SMILES | IC50
Cc1cc(=O)oc2cc(NC(=O)c3cc(NC(=O)C(=O)Nc4cc(Cl)c(C#N)cc4S(C)(=O)=O)ccc3Oc3ccc(C(=O)O)cc3)ccc12 | 62 nM
COc1cc(C#N)c(Cl)cc1NC(=O)C(=O)Nc1ccc(Oc2ccc(C(=O)O)cc2)c(C(=O)Nc2ccc3c(C)cc(=O)oc3c2)c1 | 24 nM
CCOC(=O)c1c(NC(=O)C(=O)Nc2ccc(Oc3ccc(C(=O)O)cc3)c(C(=O)Nc3ccc4c(C)cc(=O)oc4c3)c2)sc2c1CCCC2 | 313 nM
Cc1cc(=O)oc2cc(NC(=O)c3cc(NC(=O)C(=O)Nc4ccc(C#N)c(Cl)c4)ccc3Oc3ccc(C(=O)O)cc3)ccc12 | 139 nM
